Source: patent US7220775B2, “Compound useful for the treatment of neuropathic pain” (H. Lundbeck A/S, priority 2002, dated 2007)

Protein sequences, listed by entry. Tags and fused reporters are not part of them.
UniProt O60755, whole entry: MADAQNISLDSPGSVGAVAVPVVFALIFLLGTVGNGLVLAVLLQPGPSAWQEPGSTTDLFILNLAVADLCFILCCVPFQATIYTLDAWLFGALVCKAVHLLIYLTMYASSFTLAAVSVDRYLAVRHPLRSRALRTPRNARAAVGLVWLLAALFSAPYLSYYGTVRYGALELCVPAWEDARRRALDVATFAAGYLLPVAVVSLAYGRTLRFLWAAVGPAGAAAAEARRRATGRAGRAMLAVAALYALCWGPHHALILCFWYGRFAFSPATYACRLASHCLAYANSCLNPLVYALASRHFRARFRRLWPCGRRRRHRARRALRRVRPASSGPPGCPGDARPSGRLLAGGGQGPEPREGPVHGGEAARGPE

Key:
human GAL3 receptor = human GAL3 receptor (Homo sapiens, UniProt O60755); assay: Radioligand binding at cloned human GAL3 receptor; details: reference
[1] = tested on: NE transporter (rNE Uptk); assay: Binding at native NE transporter; set-up: species or system rat; details: Table 8

`COC[C@@H]1[C@@H](c2ccccc2)OCCN1c1nc(Nc2ccc(C)cc2)cc(N2CCCCC2)n1` showed a selectivity ratio hGAL3 (Ki hGAL3 / Ki hGAL3) (human GAL3 receptor; Table 8) of 1, a selectivity ratio hGAL3 (Ki hGAL3 / Ki hGAL3) (human GAL3 receptor; Table 10) of 1 and a selectivity ratio rNE Uptk (Ki rNE Uptk / Ki hGAL3) [1] of over 100.
